Biological target: human μ-opioid receptor (OPRM1) (Homo sapiens, UniProt P35372)
Experiment: Forskolin-induced cAMP accumulation assay, MOR antagonist mode
Settings: read-out: MOR Antagonist IC50 ± SEM; cAMP Hunter CHO-K1 cells; versus EC90 of fentanyl

By UniProt entry, the sequences of proteins in these tests, tags left out.
UniProt P35372, whole entry, looked up: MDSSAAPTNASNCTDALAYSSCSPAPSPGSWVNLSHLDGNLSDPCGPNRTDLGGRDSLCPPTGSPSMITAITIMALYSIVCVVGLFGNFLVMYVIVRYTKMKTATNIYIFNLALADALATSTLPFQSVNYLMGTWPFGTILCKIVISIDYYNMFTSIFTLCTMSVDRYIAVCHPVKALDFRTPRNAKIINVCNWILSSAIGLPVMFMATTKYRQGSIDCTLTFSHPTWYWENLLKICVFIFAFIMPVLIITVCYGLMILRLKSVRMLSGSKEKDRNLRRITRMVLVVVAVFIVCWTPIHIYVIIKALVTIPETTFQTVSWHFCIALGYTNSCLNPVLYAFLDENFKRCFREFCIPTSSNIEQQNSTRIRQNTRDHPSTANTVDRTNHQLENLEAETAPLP

SMILES	IC50 [µM]
C[C@H]1[C@H]2Cc3ccc(O)cc3[C@]1(C)CCN2CCC1CCN(C)CC1 [Compound 28, (1R,5R,9R)-6,11-Dimethyl-3-(2-(1-methylpiperidin-4-yl)ethyl)-1,2,3,4,5,6-hexahydro-2,6-methanobenzo[d]azocin-8-ol]	> 10
C[C@H]1[C@H]2Cc3ccc(O)cc3[C@]1(C)CCN2CCCc1ccc([N+](=O)[O-])cc1 [Compound 31, (1R,5R,9R)-6,11-Dimethyl-3-(3-(4-nitrophenyl)propyl)-1,2,3,4,5,6-hexahydro-2,6-methanobenzo[d]azocin-8-ol]	> 10

— publication PMC10708259 (Molecules, 2023)
